In patent publication US9796753B2, “N-substituted indenoisoquinolines and syntheses thereof” (Purdue Research Foundation, priority 2005, dated 2017):

Key:
[1] = biological target: T1, topoisomerase I (Homo sapiens, UniProt P11387); experiment: Topoisomerase I-mediated DNA cleavage reactions (A), 3'-end-labeled 161 bp plasmid DNA, semiquantitative; settings: tested at concentrations ranging up to 10 μM; semi-quantitative
T1 sequence (P11387 1-765): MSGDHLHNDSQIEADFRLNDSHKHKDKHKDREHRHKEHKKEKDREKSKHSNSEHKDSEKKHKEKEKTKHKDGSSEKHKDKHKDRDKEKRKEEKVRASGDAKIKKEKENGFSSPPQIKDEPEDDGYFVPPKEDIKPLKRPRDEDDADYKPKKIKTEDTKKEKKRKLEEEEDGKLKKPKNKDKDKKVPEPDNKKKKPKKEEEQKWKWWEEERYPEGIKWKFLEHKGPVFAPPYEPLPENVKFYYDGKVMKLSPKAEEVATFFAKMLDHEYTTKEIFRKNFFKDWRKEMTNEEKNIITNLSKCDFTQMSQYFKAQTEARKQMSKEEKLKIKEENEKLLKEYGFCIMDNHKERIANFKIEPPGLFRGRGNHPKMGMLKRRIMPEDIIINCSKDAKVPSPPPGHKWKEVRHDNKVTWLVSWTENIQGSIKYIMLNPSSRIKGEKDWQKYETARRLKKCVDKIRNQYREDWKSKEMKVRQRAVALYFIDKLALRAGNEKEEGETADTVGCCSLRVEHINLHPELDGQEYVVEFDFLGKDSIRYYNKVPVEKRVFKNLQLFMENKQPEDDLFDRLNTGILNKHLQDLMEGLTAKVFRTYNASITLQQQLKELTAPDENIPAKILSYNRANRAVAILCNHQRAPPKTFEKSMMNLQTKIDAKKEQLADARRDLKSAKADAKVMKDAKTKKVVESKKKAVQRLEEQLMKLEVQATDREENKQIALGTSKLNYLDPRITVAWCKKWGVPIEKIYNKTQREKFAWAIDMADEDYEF

[2] = biological target: T2, Human recombinant Top1 (Homo sapiens, UniProt P11387); experiment: Topoisomerase 1-mediated DNA cleavage reactions (B), 117-bp DNA oligonucleotide; assay type: biochemical; settings: Table 7; rubric based on the activity of camptothecin (FIG. 6)
T2 construct: made in house
T2 sequence (P11387 1-765): T1 sequence (P11387 1-765)

Row | Top 1 Cleavage [2] | Compound | Top 1 Cleavage [1]
1 |  | COc1cc2c3c(n(CCCN(CCCN(CCCn4c5c(c6ccccc6c4=O)C(=O)c4ccccc4-5)C(=O)OC(C)(C)C)C(=O)OC(C)(C)C)c(=O)c2cc1OC)-c1cc2c(cc1C3=O)OCO2 [Compound 16a, 1,3-{6-(3-tert-Butyloxycarbonylamino-1-propyl)-5,6-dihydro-2,3-dimethoxy-8,9-methylenedioxy-5,11-dioxo-11H-indeno[1,2-c]isoquinoline}-{5′,6′-dihydro-6′-[(3′-tert-butyloxycarbonylamino)-1′-propyl]-5′,11′-dioxo-11′H-indeno[1,2-c]isoquinoline}propane] | 0
2 |  | O=C(O)C(F)(F)F.O=C(O)C(F)(F)F.O=C1c2ccccc2-c2c1c1ccc([N+](=O)[O-])cc1c(=O)n2CCCNCCCNCCCn1c2c(c3ccc([N+](=O)[O-])cc3c1=O)C(=O)c1ccccc1-2 [Compound 14n, Bis-1,3-{(5,6-dihydro-5,1-diketo-3-nitro-11H-indeno[1,2-c]isoquinoline)-6-propylamino}propane Bis{trifluoroacetate)] | 0
3 |  | COc1cc2c3c(n(CCCNCCCNCCCn4c5c(c6ccccc6c4=O)C(=O)c4ccccc4-5)c(=O)c2cc1OC)-c1cc2c(cc1C3=O)OCO2.O=C(O)C(F)(F)F.O=C(O)C(F)(F)F [Compound 17a, 1,3-{6-(3-Amino-1-propyl)-5,6-dihydro-2,3-dimethoxy-8,9-methylenedioxy-5,1-dioxo-11H-indeno[1,2-c]isoquinoline}-{5′,6′-Dihydro-6′-(3′-amino-1′-propyl)-5′,11′-dioxo-11′H-indeno[1,2-c]isoquinoline}propane Bis(trifluoroacetate)] | +
4 |  | COc1cc2c3c(n(CCCNCCCNCCCn4c5c(c6cc(OC)c(OC)cc6c4=O)C(=O)c4ccccc4-5)c(=O)c2cc1OC)-c1ccccc1C3=O.O=C(O)C(F)(F)F.O=C(O)C(F)(F)F [Compound 14l, Bis-1,3-{(5,6-dihydro-5,11-diketo-2,3-dimethoxy-11H-indeno[1,2-c]isoquinoline)-6-propylamino}propane Bis{trifluoroacetate)] | ++
5 |  | NCCCn1c2c(c3ccccc3c1=O)C(=O)c1ccccc1-2 [Compound S-3, 5,6-dihyro-6-(3-amino-1-propyl)-5,11-dioxo-11H-indeno[1,2,c]isoquinoline, reference compound] | +++
6 |  | O=C(O)C(F)(F)F.O=C(O)C(F)(F)F.O=C1c2ccccc2-c2c1c1ccccc1c(=O)n2CCCNCCCCNCCCn1c2c(c3ccccc3c1=O)C(=O)c1ccccc1-2 [Compound 14h, Bis-1,4-{(5,6-dihydro-5,11-diketo-11H-indeno[1,2-c]isoquinoline)-6-propylamino}butane Bis(trifluoroacetate)] | +++
7 |  | O=C(O)C(F)(F)F.O=C(O)C(F)(F)F.O=C1c2ccccc2-c2c1c1ccc([N+](=O)[O-])cc1c(=O)n2CCNCCCNCCn1c2c(c3ccc([N+](=O)[O-])cc3c1=O)C(=O)c1ccccc1-2 [Compound 14m, Bis-1,3-{(5,6-dihydro-5,11-diketo-3-nitro-11H-indeno[1,2-c]isoquinoline)-6-ethylamino}propane Bis{trifluoroacetate)] | ++
8 |  | O=C(O)C(F)(F)F.O=C(O)C(F)(F)F.O=C1c2ccccc2-c2c1c1ccccc1c(=O)n2CCCN1CCN(CCCn2c3c(c4ccccc4c2=O)C(=O)c2ccccc2-3)CC1 [Compound 14f, Bis-1,4-{(5,6-dihydro-5,11-diketo-11H-indeno[1,2-c]isoquinoline)-6-propyl}piperazine Bis(trifluoroacetate)] | 0
9 | + (+, 20-50% activity) | O=C1c2cc3c(cc2-c2c1c1ccc(Cl)cc1c(=O)n2CCCN1CCOCC1)OCO3 [Compound 40] | 
10 |  | CC(C)(C)OC(=O)N(CCCN(CCn1c2c(c3ccccc3c1=O)C(=O)c1ccccc1-2)C(=O)OC(C)(C)C)CCn1c2c(c3ccccc3c1=O)C(=O)c1ccccc1-2 [Compound 13a, Bis-1,3-{(5,6-dihydro-5,11-diketo-11H-indeno[1,2-c]isoquinoline)-(6-ethyl-tert-BOCamino)}propane] | 0
11 |  | CC(C)(C)OC(=O)N(CCCCN(CCCn1c2c(c3ccccc3c1=O)C(=O)c1ccccc1-2)C(=O)OC(C)(C)C)CCCn1c2c(c3ccccc3c1=O)C(=O)c1ccccc1-2 [Compound 13d, Bis-1,4-{(5,6-dihydro-5,11-diketo-11H-indeno[1,2-c]isoquinoline)-(6-propyl-tert-BOCamino)}butane] | ++
12 |  | CN(CCCn1c2c(c3ccccc3c1=O)C(=O)c1ccccc1-2)CCCn1c2c(c3ccccc3c1=O)C(=O)c1ccccc1-2 [Compound 12d, Bis{(5,6-dihydro-5,11-diketo-11H-indeno[1,2-c]isoquinoline)-6-propyl}methylamine] | ++
13 |  | CC(C)(C)OC(=O)N(CCCn1c2c(c3ccccc3c1=O)C(=O)c1ccccc1-2)CCN(CCCn1c2c(c3ccccc3c1=O)C(=O)c1ccccc1-2)C(=O)OC(C)(C)C [Compound 13b, Bis-1,2-{(5,6-dihydro-5,11-diketo-11H-indeno[1,2-c]isoquinoline)-(6-propyl-tert-BOCamino)}ethane] | 0
14 |  | O=C1c2ccccc2-c2c1c1ccccc1c(=O)n2CCCNCCCn1c2c(c3ccccc3c1=O)C(=O)c1ccccc1-2 [Compound 12c, Bis{(5,6-dihydro-5,11-diketo-11H-indeno[1,2-c]isoquinoline)-6-propyl}amine] | +
15 |  | Bis-1,2-{(5,6-dihydro-5,11-diketo-11H-indeno[1,2-c]isoquinoline)-6-ethylamino-ethylamino}ethane Tetra(trifluoroacetate) [Compound 14j] | ++
16 | + (+, 20-50% activity) | O=C1c2cc3c(cc2-c2c1c1ccc(F)cc1c(=O)n2CCCN1CCOCC1)OCO3 [Compound 37] | 
17 | ++++ | Cl.NCCCn1c2c(c3ccc([N+](=O)[O-])cc3c1=O)C(=O)c1cc3c(cc1-2)OCO3 [Compound 35] | 
18 | + (+, 20-50% activity) | O=C1c2cc3c(cc2-c2c1c1cc(Cl)c(Cl)cc1c(=O)n2CCCn1ccnc1)OCO3 [Compound 44] | 
19 |  | O=C(O)C(F)(F)F.O=C1c2ccccc2-c2c1c1ccccc1c(=O)n2CCCNCCn1c2c(c3ccccc3c1=O)C(=O)c1ccccc1-2 [Compound 14a, Bis{(5,6-dihydro-5,11-diketo-11H-indeno[1,2-c]isoquinoline)}-(6-ethyl,6′-propyl)ammonium Trifluoroacetate] | +
20 | ++ (++, 50-75% activity) | O=C1c2cc3c(cc2-c2c1c1ccc(F)cc1c(=O)n2CCCNCCO)OCO3 [Compound 38] | 
21 |  | COc1cc2c3c(n(CCNCCCNCCn4c5c(c6cc(OC)c(OC)cc6c4=O)C(=O)c4ccccc4-5)c(=O)c2cc1OC)-c1ccccc1C3=O.O=C(O)C(F)(F)F.O=C(O)C(F)(F)F [Compound 14k, Bis-1,3-{(5,6-dihydro-5,11-diketo-2,3-dimethoxy-11H-indeno[1,2-c]isoquinoline)-6-ethylamino}propane Bis{trifluoroacetate)] | ++
22 |  | O=C(O)C(F)(F)F.O=C(O)C(F)(F)F.O=C(O)C(F)(F)F.O=C1c2ccccc2-c2c1c1ccccc1c(=O)n2CCNCCNCCNCCn1c2c(c3ccccc3c1=O)C(=O)c1ccccc1-2 [Compound 14i, Bis{(5,6-dihydro-5,11-diketo-11H-indeno[1,2-c]isoquinoline)-6-ethylamino-ethyl}amine Tris(trifluoroacetate)] | +++
23 | +++ (+++, 75-95% activity) | O=C1c2cc3c(cc2-c2c1c1ccc(F)cc1c(=O)n2CCCn1ccnc1)OCO3 [Compound 36] | 
24 | +++ (+++, 75-95% activity) | O=C1c2cc3c(cc2-c2c1c1ccc(Cl)cc1c(=O)n2CCCNCCO)OCO3 [Compound 41] | 
25 | ++ (++, 50-75% activity) | O=C1c2cc3c(cc2-c2c1c1ccc(Cl)cc1c(=O)n2CCCn1ccnc1)OCO3 [Compound 39] | 
26 | + (+, 20-50% activity) | O=C1c2cc3c(cc2-c2c1c1cc(F)c(F)cc1c(=O)n2CCCn1ccnc1)OCO3 [Compound 42] | 
27 |  | O=C(O)C(F)(F)F.O=C(O)C(F)(F)F.O=C1c2ccccc2-c2c1c1ccccc1c(=O)n2CCNCCNCCn1c2c(c3ccccc3c1=O)C(=O)c1ccccc1-2 [Compound 14c, Bis-1,2-{(5,6-dihydro-5,11-diketo-11H-indeno[1,2-c]isoquinoline)-6-ethylamino}ethane Bis(trifluoroacetate)] | +
28 |  | O=C1c2ccccc2-c2c1c1ccccc1c(=O)n2CCNCCn1c2c(c3ccccc3c1=O)C(=O)c1ccccc1-2 [Compound 12a, Bis{(5,6-dihydro-5,11-diketo-11H-indeno[1,2-c]isoquinoline)-6-ethyl}amine] | +
29 |  | Cl.O=C1c2ccccc2-c2c1c1ccccc1c(=O)n2CCCCNCCCn1c2c(c3ccccc3c1=O)C(=O)c1ccccc1-2 [Compound 14b, Bis{(5,6-dihydro-5,11-diketo-11H-indeno[1,2-c]isoquinoline)}-(6-propyl,6′-butyl)amine Hydrochloride] | +
